Source: patent US6117645A, “Human LH-RH receptor expression cells and use thereof” (Takeda Chemical Industries, Ltd., priority 1994, dated 2000)

Tests used:
Format in all cases: cell-based
[1] = molecular target: T1, human LH-RH receptor (Homo sapiens, UniProt P30968); assay: Intracellular calcium concentration (fura-2) on LH-RH stimulation of CHO/L39-7 cells; conditions: fura-2 fluorescence ratio 340/380 nm, FIG. 4
T1 construct: cell membrane fraction or whole cells
T1 sequence (P30968 1-328): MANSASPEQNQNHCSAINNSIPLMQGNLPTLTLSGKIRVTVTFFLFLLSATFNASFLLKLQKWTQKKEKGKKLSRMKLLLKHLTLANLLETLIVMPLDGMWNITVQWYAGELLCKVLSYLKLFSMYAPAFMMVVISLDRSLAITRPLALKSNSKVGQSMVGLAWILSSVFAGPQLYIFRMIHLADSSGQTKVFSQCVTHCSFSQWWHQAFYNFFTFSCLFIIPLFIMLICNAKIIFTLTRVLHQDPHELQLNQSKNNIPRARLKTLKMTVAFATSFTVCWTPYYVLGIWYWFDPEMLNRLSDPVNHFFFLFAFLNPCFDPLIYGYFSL
Description: Changes in intercellular calcium concentration were examined by use of a specific fluorescent material (fura-2). The human LH-RH receptor expression CHO cells were cultivated on a 6-cm dish tiled with cover glass for 3 days. The cells were washed three times with a calcium assay buffer (Hanks' solution containing 0.1% BSA), and 2.5 ml of the same buffer containing 4 μM fura-2 was added thereto, followed by standing at room temperature for 90 minutes. After washing three times with the buffer, the cover glass was transferred to a cuvette, and the assay was conducted with a fluorescence spectrophotometer (FIG. 4).

[2] = molecular target: T1, human LH-RH receptor; assay: Inositol phosphate production ([3H]inositol labeling) on LH-RH stimulation of CHO/L39-7 cells; conditions: 37° C., 10 minutes, FIG. 5
Description: The concentration of inositol phosphate (IPS) was measured by labeling the cells with [^3 H] inositol. The human LH-RH receptor expression CHO cells (4×10^4 cells) were cultivated on a 24-well plate for 48 hours, and 2.5 μCi per well of myo [2-^3 H] inositol (Amersham) was added thereto, followed by further cultivation for 24 hours. The cells were washed with an IP assay buffer [20 mM HEPES (pH 7.4), 140 mM NaCl, 4 mM KCl, 1 mM NaH2 PO4, 1 mM MgCl2, 1.25 mM CaCl2, 10 mM LiCl, 10 mM glucose, 0.1% BSA], and the same buffer was added thereto, followed by standing at 37° C. for 30 minutes. The medium was changed with 500 μl of the same buffer, and LH-RH was added thereto, followed by reaction at 37° C. for 10 minutes. Then, 100 μl of 10% perchloric acid was added, and the mixture was allowed to stand at 0° C. for 30 minutes. Thereafter, 150 μl of 1.53 M KOH and 75 mM HEPES was added thereto for neutralization. After further standing at 0° C. for 30 minutes, the product was centrifuged, and the supernatant was purified through an anion exchange column (AG1-X8). The column was washed with H2 O and a washing solution (5 mM sodium tetraborate, 60 mM ammonium formate), and then, eluted with 1 M formic acid and 0.1 M ammonium formate. The radioactivity of the eluate was assayed with a liquid scintillation counter (LSC) (FIG. 5).

[3] = molecular target: T1, human LH-RH receptor; assay: Arachidonic acid release ([3H]arachidonic acid labeling) on LH-RH stimulation of CHO/L39-7 cells; conditions: 37° C., 15 minutes, FIG. 6
Description: The concentration of arachidonic acid was measured by labeling the cells with [^3 H] arachidonic acid. The human LH-RH receptor expression CHO cells (4×10^4 cells) were cultivated on a 24-well plate for 48 hours, and 0.25 μCi per well of [5,6,8,9,11,12,14,15-^3 H] arachidonic acid (Amersham) was added thereto, followed by further cultivation for 24 hours. The cells were washed with an arachidonic acid assay buffer [DMEM medium containing 20 mM HEPES (pH 7.4) and 0.2% BSA], and the same buffer was added thereto, followed by standing at 37° C. for 30 minutes. The medium was changed with 500 μl of the same buffer, and LH-RH was added thereto, followed by standing at 37° C. for 15 minutes. Then, the radioactivity of the supernatant was assayed with an LSC (FIG. 6).

LH-RH: luteinizing hormone-releasing hormone, a peptide consisting of 10 amino acids; LH-RH receptor agonist
observed: increase of intracellular Ca2+ [1] | production of IPS due to LH-RH stimulation [2] | release of arachidonic acid [3]
